Values of other authors in patent publication US20170198359A1, “METHODS AND COMPOSITIONS FOR TREATMENT OR DIAGNOSIS OF CANCERS RELATED TO GABRA3” (The Wistar Institute of Anatomy and Biology, priority 2016, published 2017).

Tested on: metastatic breast cancer
Conditions: metastatic breast cancer patients with minimal residual disease after chemotherapy or non-progressing during endocrine therapy; cited from earlier work

B1: Recombinant interferon-β: Recombinant interferon-β (IFN-β) (protein, UniProt P01574 22-187, looked up)
Interferon beta: MSYNLLGFLQRSSNFQCQKLLWQLNGRLEYCLKDRMNFDIPEEIKQLQQFQKEDAALTIYEMLQNIFAIFRQDSSSTGWNETIVENLLANVYHQINHLKTVLEEKLEKEDFTRGKLMSSLHLKRYYGRILHYLKAKEYSHCAWTIVRVEILRNFYFINRLTGYLRN
clinical benefits and overall survival: improve
